Results reported in patent publication US11472877 (Alector, dated 2022).

Chains of the proteins cited; added tags and fusions are not shown. A line that says so, or that is headed by a name, gives the form on record, which may keep a tag or linker. Residues count along the entry.
UniProt Q9NP99, 21-234: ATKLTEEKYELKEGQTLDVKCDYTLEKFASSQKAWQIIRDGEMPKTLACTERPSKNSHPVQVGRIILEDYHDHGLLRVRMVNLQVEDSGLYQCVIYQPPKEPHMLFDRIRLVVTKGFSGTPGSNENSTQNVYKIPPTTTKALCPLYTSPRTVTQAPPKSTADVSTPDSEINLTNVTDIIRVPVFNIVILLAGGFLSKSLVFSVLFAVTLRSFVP
UniProt Q9NP99, 21-205 limits assumed, form in doubt: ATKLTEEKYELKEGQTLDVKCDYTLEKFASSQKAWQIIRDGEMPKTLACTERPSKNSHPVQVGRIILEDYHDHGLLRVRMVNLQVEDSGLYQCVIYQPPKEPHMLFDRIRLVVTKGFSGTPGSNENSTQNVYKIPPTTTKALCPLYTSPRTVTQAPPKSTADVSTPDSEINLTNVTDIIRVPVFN

T1: mouse TREM2 on BWZ cells (mouse, UniProt Q99NH8 19-227)
T1 construct: whole, on cells; also called BWZ Mouse TREM2
T1 sequence (looked up): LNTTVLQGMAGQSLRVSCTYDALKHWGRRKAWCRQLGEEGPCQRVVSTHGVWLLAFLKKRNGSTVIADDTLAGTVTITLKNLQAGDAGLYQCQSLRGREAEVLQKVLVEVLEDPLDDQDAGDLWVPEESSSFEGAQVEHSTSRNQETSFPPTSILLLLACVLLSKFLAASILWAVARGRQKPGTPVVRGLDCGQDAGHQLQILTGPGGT

T2: human TREM2 on BWZ cells (human, UniProt Q9NZC2 19-230)
T2 construct: whole, on cells; not tied to the cell line; also called BWZ Human TREM2
T2 sequence (looked up): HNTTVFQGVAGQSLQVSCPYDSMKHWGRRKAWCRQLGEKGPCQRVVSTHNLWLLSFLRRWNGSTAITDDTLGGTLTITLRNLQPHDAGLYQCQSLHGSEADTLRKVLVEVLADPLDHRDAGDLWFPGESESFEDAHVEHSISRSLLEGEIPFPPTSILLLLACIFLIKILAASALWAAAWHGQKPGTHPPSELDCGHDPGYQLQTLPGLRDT

T3: mouse TREM1 on CHO cells (mouse, UniProt Q9JKE2 21-230)
T3 construct: also called CHO-mT1
T3 sequence: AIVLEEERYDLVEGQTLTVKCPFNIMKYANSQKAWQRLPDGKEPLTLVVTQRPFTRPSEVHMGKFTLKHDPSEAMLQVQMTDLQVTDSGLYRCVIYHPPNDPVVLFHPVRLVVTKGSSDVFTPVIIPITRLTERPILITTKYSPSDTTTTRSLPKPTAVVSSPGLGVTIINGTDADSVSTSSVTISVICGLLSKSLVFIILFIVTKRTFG


Assays:
mouse TREM2 on BWZ cells [1] = target: T1, mouse TREM2 on BWZ cells; experiment: FACS, BWZ cells
human TREM1 on cells [2] = target: T4, human TREM1 on cells (human, UniProt Q9NP99 21-234); experiment: FACS, human neutrophils
T4 construct: Some reporter cells carry a human TREM1/CD3 zeta fusion instead; also called CHO-huT1; CHO-hT1

human TREM2 on BWZ cells = target: T2, human TREM2 on BWZ cells; experiment: FACS, BWZ human TREM2
human TREM1 = human TREM1 (human, UniProt Q9NP99 21-205, limits assumed); experiment: IgG, monovalent; method and antigen form not stated
mouse TREM1 on CHO cells = target: T3, mouse TREM1 on CHO cells; experiment: FACS, CHO mouse TREM1
mouse TREM2 on BWZ cells [3] = target: T1, mouse TREM2 on BWZ cells; experiment: FACS, BWZ mouse TREM2
human TREM1 on cells [4] = target: T4, human TREM1 on cells; experiment: FACS ligand blocking on CHO-huTREM1, 10 ug/mL IgG; competitor hPGLYRP1/PGN-BS
human TREM1 on cells [5] = target: T4, human TREM1 on cells; experiment: FACS, CHO human TREM1
human TREM1 on cells [6] = target: T4, human TREM1 on cells; experiment: cell-based or functional assay
human TREM1 on cells [7] = target: T4, human TREM1 on cells; experiment: FACS contour plots on CHO-huTREM1, anti-HIS PE against HuTREM1-GFP

Binder	binding result (mouse TREM2 on BWZ cells [1])	FOB Fold Over Background (human TREM1 on cells [2]) [fold]	FOB Fold Over Background (human TREM2 on BWZ cells) [fold]	Kd (human TREM1) [nM]	koff (human TREM1) [s⁻¹]	kon (human TREM1) [M⁻¹ s⁻¹]	FOB Fold Over Background (mouse TREM1 on CHO cells) [fold]	FOB Fold Over Background (mouse TREM2 on BWZ cells [3]) [fold]	% ligand binding blocked (human TREM1 on cells [4]) [%]	FOB Fold Over Background (human TREM1 on cells [5]) [fold]	GFP expression, NFAT-GFP reporter cells expressing human TREM1, soluble antibody (human TREM1 on cells [6]) [fold]	cell surface levels of TREM1, primary human neutrophils, FACS (human TREM1 on cells [6]) [%]	binding result (human TREM1 on cells [7])
T1-72 (antibody, IgG1, V domains shown, huIgG1; also called TI-72; ADI-19148) VH: EVQLVESGGGLVQPGRSLRLSCAASGFTFDDYAMHWVRQAPGKGLEWVSGISWNSGDIGYADSVKGRFTISRDNAKNSLYLQMNSLRAEDTALYYCAKGPRMTHSYFDLWGRGTLVTVSS VL: not shown	–	5.2	1.3	–	–	–	1.2	1.3	≥ 85	504	≥ 3	–	–
T1-70 (antibody, IgG1, V domains shown, huIgG1; also called TI-70; ADI-19146) VH: QVQLVQSGAEVKKPGASVKVSCKASGYTFTSYGIHWVRQAPGQGLEWMGWISAYNGNTNYAQKLQGRVTMTTDTSTSTAYMELRSLRSDDTAVYYCARAGTIYGRLDLWGRGTLVTVSS VL: DIQLTQSPSSVSASVGDRVTITCRASQDISSWLAWYQQKPGKAPKLLIYAASSLQSGVPSRFSGSGSGTDFTLTISSLQPEDFATYYCQQAVSHPLTFGGGTKVEIK	–	2.2	0.9	–	–	–	1.2	0.9	≥ 85	405	≥ 3	–	–
T1-57 (antibody, IgG1, V domains shown, huIgG1; also called TI-57; ADI-19132) VH: EVQLVESGGGLVQPGRSLRLSCAASGFTFDDYAMHWVRQAPGKGLEWVSGITWNSGSIGYADSVKGRFTISRDNAKNSLYLQMNSLRAEDTALYYCAKGPRYSKPYFDYWGQGTLVTVSS VL: DIQMTQSPSSVSASVGDRVTITCRASQGIDSWLAWYQQKPGKAPKLLIYAASSLQSGVPSRFSGSGSGTDFTLTISSLQPEDFATYYCQQRAVFPPTFGGGTKVEIK	–	4.4	0.9	–	–	–	1.7	1.3	≥ 85	456	–	≥ 65	–
T1-52 (antibody, IgG1, V domains shown, huIgG1; also called TI-52; ADI-19127) VH: QVQLVQSGAEVKKPGSSVKVSCKASGGTFSSYAISWVRQAPGQGLEWMGSIIPIFGTANYAQKFQGRVTITADESTSTAYMELSSLRSEDTAVYYCARDRGQYSSSWYGRMDVWGQGTTVTVSS VL: DIQMTQSPSTLSASVGDRVTITCRASQSISSWLAWYQQKPGKAPKLLIYKASSLESGVPSRFSGSGSGTEFTLTISSLQPDDFATYYCQQSSADSPFTFGGGTKVEIK	–	4.2	1	56.6	0.024	423000	3.2	1.2	≥ 85	475	~3	–	–
T1-73 (antibody, IgG1, V domains shown, huIgG1; also called TI-73; ADI-19149) VH: EVQLVESGGGLVQPGRSLRLSCAASGFTFDDYAMHWVRQAPGKGLEWVSGISWNSGSIGYADSVKGRFTISRDNAKNSLYLQMNSLRAEDTALYYCAKAPRMYGYFDLWGRGTSVTVSS VL: DIQMTQSPSTLSASVGDRVTITCRASQSISSWLAWYQQKPGKAPKLLIYKASSLESGVPSRFSGSGSGTEFTLTISSLQPDDFATYYCQQYRTYPTFGGGTKVEIK	–	3.7	1	–	–	–	1.2	0.9	≥ 85	479	≥ 3	–	–
T1-56 (antibody, IgG1, V domains shown, huIgG1; also called TI-56; ADI-19131) VH: EVQLVESGGGLVQPGRSLRLSCAASGFTFDDYAMHWVRQAPGKGLEWVSGISWNSGSIGYADSVKGRFTISRDNAKNSLYLQMNSLRAEDTALYYCAKGPRLLGYFDLWGRGTLVTVSS VL: not shown	–	6.8	1.2	14	0.014	998000	1.1	1.3	≥ 85	432	–	≥ 65	–

The remaining lines, values ahead:

binding result (mouse TREM2 on BWZ cells [1])	FOB Fold Over Background (human TREM1 on cells [2]) [fold]	FOB Fold Over Background (human TREM2 on BWZ cells) [fold]	Kd (human TREM1) [nM]	koff (human TREM1) [s⁻¹]	kon (human TREM1) [M⁻¹ s⁻¹]	FOB Fold Over Background (mouse TREM1 on CHO cells) [fold]	FOB Fold Over Background (mouse TREM2 on BWZ cells [3]) [fold]	% ligand binding blocked (human TREM1 on cells [4]) [%]	FOB Fold Over Background (human TREM1 on cells [5]) [fold]	GFP expression, NFAT-GFP reporter cells expressing human TREM1, soluble antibody (human TREM1 on cells [6]) [fold]	cell surface levels of TREM1, primary human neutrophils, FACS (human TREM1 on cells [6]) [%]	binding result (human TREM1 on cells [7])	Binder
no binding	2.6	1	25.1	0.00374	149000	1.6	1.2	≥ 50	418	–	–	–	T1-58 (antibody, IgG1, V domains shown, huIgG1; also called TI-58; ADI-19133) VH: QLQLQESGPGLVKPSETLSLTCTVSGGSISSSSYYWGWIRQPPGKGLEWIGSIYYSGSTYYNPSLKSRVTISVDTSKNQFSLKLSSVTAADTAVYYCARQEYGDGYFDLWGRGTLVTVSS VL: not shown
–	3	1	–	–	–	1.1	1.1	≥ 85	428	≥ 3	≥ 65	–	T1-75 (antibody, IgG1, V domains shown, huIgG1; also called TI-75; ADI-19152) VH: QVQLVESGGGLVQPGRSLRLSCAASGFTFDDYAMHWVRQAPGKGLEWVSGISWNSGDIGYADSVKGRFTISRDNAKNSLYLQMNSLRAEDTALYYCAKAPRTRWTYFDYWGQGTLVTVSS VL: EIVLTQSPATLSLSPGERATLSCRASQSVSSYLAWYQQKPGQAPRLLIYDASNRATGIPARFSGSGSGTDFTLTISSLEPEDFAVYYCQHYNLWRTFGGGTKVEIK
–	2.4	0.9	–	–	–	0.8	1.1	≥ 85	444	–	≥ 65	–	T1-77 (antibody, IgG1, V domains shown, huIgG1; also called TI-77; ADI-19154) VH: QVQLQESGPGLVKPSETLSLTCAVSGYSISSGYYWAWIRQPPGKGLEWIGSIYHSGSTYYNPSLKSRVTISVDTSKNQFSLKLSSVTAADTAVYYCARGGPYPWSGWFDPWGQGTLVTVSS VL: EIVMTQSPATLSVSPGERATLSCRASQSVGSNLAWYQQKPGQAPRLLIYGASTRATGIPARFSGSGSGTEFTLTISSLQSEDFAVYYCQQHDVWPYTFGGGTKVEIK
–	3.9	0.7	13.5	0.0136	1.01e+06	–	0.9	≥ 85	499	≥ 3	–	–	T1-74 (antibody, IgG1, V domains shown, huIgG1; also called TI-74; ADI-19151) VH: EVQLVESGGGLVQPGRSLRLSCAASGFTFDDYAMHWVRQAPGKGLEWVSGISWNSGSIGYADSVKGRFTISRDNAKNSLYLQMNSLRAEDTALYYCAKGPRTRGYFDLWGRGTLVTVSS VL: DIQMTQSPSTLSASVGDRVTITCRASQSISSWLAWYQQKPGKAPKLLIYKASSLESGVPSRFSGSGSGTEFTLTISSLQPDDFATYYCQQHSLLSITFGGGTKVEIK
–	3.2	0.9	39.4	0.023	583000	1	1.2	≥ 85	516	≥ 3	≥ 65	–	T1-76 (antibody, IgG1, V domains shown, huIgG1; also called TI-76; ADI-19153) VH: not shown VL: DIQMTQSPSTLSASVGDRVTITCRASQSISSWLAWYQQKPGKAPKLLIYDASSLESGVPSRFSGSGSGTEFTLTISSLQPDDFATYYCQQHSTYSWTFGGGTKVEIK
–	–	–	–	–	–	–	–	–	–	–	–	no binding	recombinant, His-tagged mouse PGLYRP1 (ligand, UniProt O88593 19-182, looked up, also called mPGLYRP1; not shown: His tag) FIVPRSEWRALPSECSSRLGHPVRYVVISHTAGSFCNSPDSCEQQARNVQHYHKNELGWCDVAYNFLIGEDGHVYEGRGWNIKGDHTGPIWNPMSIGITFMGNFMDRVPAKRALRAALNLLECGVSRGFLRSNYEVKGHRDVQSTLSPGDQLYQVIQSWEHYRE
